Source: patent US4877774A, “Administration of steroid hormones” (The United States of America as represented by the …, priority 1987, dated 1989)

Assay: phase-solubility of testosterone-gamma-cyclodextrin system in water, 25° C.
Description: The appropriate proportions in the mixture can be determined by examining the descending curvature of the Bs-type phase solubility of FIG. 1.
The appropriate mixture was determined by examining the descending curvature of the Bs-type phase solubility diagram, as shown in FIG. 1. […] The complex, which precipitated as a microcrystalline powder, was removed by filtration and dried under vacuum at room temperature for 24 hours.

OC[C@H]1O[C@@H]2O[C@H]3[C@H](O)[C@@H](O)[C@@H](O[C@H]4[C@H](O)[C@@H](O)[C@@H](O[C@H]5[C@H](O)[C@@H](O)[C@@H](O[C@H]6[C@H](O)[C@@H](O)[C@@H](O[C@H]7[C@H](O)[C@@H](O)[C@@H](O[C@H]8[C@H](O)[C@@H](O)[C@@H](O[C@H]9[C@H](O)[C@@H](O)[C@@H](O[C@H]1[C@H](O)[C@H]2O)O[C@@H]9CO)O[C@@H]8CO)O[C@@H]7CO)O[C@@H]6CO)O[C@@H]5CO)O[C@@H]4CO)O[C@@H]3CO [gamma-cyclodextrin]
concentration of gamma-cyclodextrin at which the complex began to crystallize out: about 13 mM
